Assay results as given in patent US20250134865A1, “METHODS OF WEIGHT LOSS IN A SUBJECT WITH ELEVATED HBA1C” (published 2025).

Legend:
[1] = Phase 2a trial: InBody body fat mass; details: Day 61
[2] = tested on: subjects with nonalcoholic fatty liver disease (NAFLD), elevated liver fat (>8%), and elevated body mass index (BMI); experiment: Phase 2a trial: safety and tolerability; details: 61 days
[3] = tested on: subjects with nonalcoholic fatty liver disease (NAFLD), elevated liver fat (>8%), and elevated body mass index (BMI); experiment: Phase 2a trial: CAP score
[4] = tested on: inflammatory and metabolic markers; experiment: Phase 2a trial: inflammatory and metabolic markers; details: 61-day study
[5] = 150 mg, HbA1c 5.7%-9.0% subgroup
[6] = 300 mg, HbA1c 5.7%-9.0% subgroup
[7] = 450 mg, HbA1c 5.7%-9.0% subgroup

Cn1c(COc2ccc([N+](=O)[O-])cc2[N+](=O)[O-])cnc1[N+](=O)[O-]
Body Fat Mass mean change from baseline, LS Mean (SEM) ([1]; 150 mg, FAS population): −0.42 (1.004) lbs
Body Fat Mass, Difference of LS Mean and Placebo (SEM) ([1]; 150 mg, FAS population): −1.03 (1.425) lbs
Body Fat Mass mean change from baseline, LS Mean (SEM) [1, 5]: −1.78 (1.828) lbs
Body Fat Mass, Difference of LS Mean and Placebo (SEM) [1, 5]: −3.32 (2.562) lbs
Body Fat Mass mean change from baseline, LS Mean (SEM) ([1]; 300 mg, FAS population): −3.23 (0.961) lbs
Body Fat Mass, Difference of LS Mean and Placebo (SEM) ([1]; 300 mg, FAS population): −3.84 (1.395) lbs
Body Fat Mass mean change from baseline, LS Mean (SEM) [1, 6]: −3.36 (1.703) lbs
Body Fat Mass, Difference of LS Mean and Placebo (SEM) [1, 6]: −4.90 (2.472) lbs
Body Fat Mass mean change from baseline, LS Mean (SEM) ([1]; 450 mg, FAS population): −5.34 (1.014) lbs
Body Fat Mass, Difference of LS Mean and Placebo (SEM) ([1]; 450 mg, FAS population): −5.95 (1.434) lbs
Body Fat Mass mean change from baseline, LS Mean (SEM) [1, 7]: −9.02 (1.696) lbs
Body Fat Mass, Difference of LS Mean and Placebo (SEM) [1, 7]: −10.57 (2.469) lbs
Diarrhea, share of Compound 1 subjects ([2]; all Compound 1 doses, most often mild): 35% and 25%
Flushing, share of Compound 1 subjects ([2]; all Compound 1 doses, most often mild, transient, associated with alcohol intake): 25% and 31.6%
Tolerability ([2]; all dose levels): well-tolerated at all dose levels
CAP, LS mean change at day 61 ([3]; 150 mg, HbA1c subgroup): −33.2^a dB/m
CAP, LS mean change at day 61 ([3]; 150 mg, overall population): −22.2 dB/m
CAP, LS mean change at day 61 ([3]; 300 mg, HbA1c subgroup): −39.8^a dB/m
CAP, LS mean change at day 61 ([3]; 300 mg, overall population): −44.9^c dB/m
CAP, LS mean change at day 61 ([3]; 450 mg, HbA1c subgroup): −20.0 dB/m
CAP, LS mean change at day 61 ([3]; 450 mg, overall population): −38.3^b dB/m
inflammatory and metabolic markers [4]: Significant reductions

Several values for one entry are separate records, joined by “and”; a condition that tells them apart may be missing. Equal entries are not always repeated. Marks after values point to notes of the source that are not given here.
